Measurements from US4980377A, “1-(aminophenyl)-2-aminopropanone derivatives” (Laboratoire L. Lafon, priority 1984, dated 1990).

System: nigrostriatal dopaminergic system
Assay: Interaction with alpha-methyltyrosine on stereotypies (difference from amphetamine)
Conditions: α-methyltyrosine (catecholamine synthesis blocked)

CC(NC(C)(C)C)C(=O)c1ccc(N)cc1 (stereo not shown) [CRL 41 178]
Effect of alpha-methyltyrosine on the stereotypies induced by the substance: at least partially involved in the mechanism which underlies the stereotypies induced by CRL 41 178
